# Assay results taken from PubChem BioAssay AID504834 (National Center for Advancing Translational Sciences (NCATS), 2011).
# The entries are a selection whose mix differs from that of the whole data set. Some results for these compounds are left out of this collection, so the calls shown say nothing about other tests. Inconclusive results are not listed. A call without a number means that no potency is given here. Calls of active or inactive are those of the source. Calls follow the shape of the dose curve; as a rule, active = well fitted inhibition curve with a large enough effect; inconclusive = small, poorly fitted or top-dose-only effect, or another doubt; inactive = no such curve, though single readings can be large or run the other way.
# Experiment: Primary qHTS for delayed death inhibitors of the malarial parasite plastid, 96 hour incubation
# Conditions: P. falciparum luciferase reporter growth; series mostly up to 28.7 µM
# Potency is read from the fitted curve at half-maximal effect.
row,Compound,Potency
1,C=CCN1CCN(CCOC(=O)C(O)(c2ccccc2)c2ccccc2)CC1,inactive
2,CN1CCCC(OC(=O)C(O)(c2ccccc2)c2ccccc2)C1 (stereo not drawn),active: 1900 nM
3,CC(C)N1C(=O)CC2(CCN(CCOC(=O)C(O)(c3ccccc3)c3ccccc3)CC2)C1=O,inactive
